For this assay, the target named is Bromodomain-containing protein 2 (Homo sapiens, UniProt P25440).

Amino acid sequences for entries named in this document (tags omitted).
UniProt P25440, whole entry: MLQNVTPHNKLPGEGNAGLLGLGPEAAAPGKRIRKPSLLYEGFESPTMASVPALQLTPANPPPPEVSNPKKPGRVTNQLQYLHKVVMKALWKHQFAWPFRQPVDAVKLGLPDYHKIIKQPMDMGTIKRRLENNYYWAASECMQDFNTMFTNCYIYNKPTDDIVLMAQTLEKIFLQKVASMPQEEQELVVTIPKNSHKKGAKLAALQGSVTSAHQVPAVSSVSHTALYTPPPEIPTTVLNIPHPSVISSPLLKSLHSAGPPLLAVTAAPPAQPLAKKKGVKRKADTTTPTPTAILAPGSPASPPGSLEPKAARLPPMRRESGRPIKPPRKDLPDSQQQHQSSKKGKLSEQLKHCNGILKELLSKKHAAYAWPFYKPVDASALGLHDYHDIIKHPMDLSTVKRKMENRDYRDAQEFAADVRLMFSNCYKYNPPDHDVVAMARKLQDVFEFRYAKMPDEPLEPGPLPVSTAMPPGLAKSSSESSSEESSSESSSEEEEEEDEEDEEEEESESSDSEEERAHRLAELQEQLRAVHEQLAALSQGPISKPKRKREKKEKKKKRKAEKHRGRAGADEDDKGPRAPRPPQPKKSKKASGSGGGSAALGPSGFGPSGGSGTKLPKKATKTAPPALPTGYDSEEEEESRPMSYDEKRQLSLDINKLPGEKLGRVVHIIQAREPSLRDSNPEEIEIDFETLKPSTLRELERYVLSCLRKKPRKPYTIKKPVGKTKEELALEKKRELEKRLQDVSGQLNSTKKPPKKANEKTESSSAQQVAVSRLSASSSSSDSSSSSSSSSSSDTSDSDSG

As a reminder, the IC50 is the concentration at which inhibition is half-maximal. Low values mean inhibition by little substance, high ones a need for much substance. On to `Cc1sc2c(c1C)C(c1ccc(Cl)cc1)=N[C@@H](CC(=O)Nc1ccc(O)cc1)c1nnc(C)n1-2` [BIRABRESIB], for which the IC50 lay within 92 to 112 nM.

Source of the values: ChEMBL document CHEMBL4043066, “Drug Discovery Targeting Bromodomain-Containing Protein 4” (J Med Chem, 2017).
